# Experimental data taken from PubChem BioAssay AID1416 (The Scripps Research Institute Molecular Screening Center, 2008).
# Chains of the proteins cited; added tags and fusions are not shown. Lines headed by an entry give the natural chain unless they say otherwise; changes in a name come on top.
# UniProt Q9NZJ5: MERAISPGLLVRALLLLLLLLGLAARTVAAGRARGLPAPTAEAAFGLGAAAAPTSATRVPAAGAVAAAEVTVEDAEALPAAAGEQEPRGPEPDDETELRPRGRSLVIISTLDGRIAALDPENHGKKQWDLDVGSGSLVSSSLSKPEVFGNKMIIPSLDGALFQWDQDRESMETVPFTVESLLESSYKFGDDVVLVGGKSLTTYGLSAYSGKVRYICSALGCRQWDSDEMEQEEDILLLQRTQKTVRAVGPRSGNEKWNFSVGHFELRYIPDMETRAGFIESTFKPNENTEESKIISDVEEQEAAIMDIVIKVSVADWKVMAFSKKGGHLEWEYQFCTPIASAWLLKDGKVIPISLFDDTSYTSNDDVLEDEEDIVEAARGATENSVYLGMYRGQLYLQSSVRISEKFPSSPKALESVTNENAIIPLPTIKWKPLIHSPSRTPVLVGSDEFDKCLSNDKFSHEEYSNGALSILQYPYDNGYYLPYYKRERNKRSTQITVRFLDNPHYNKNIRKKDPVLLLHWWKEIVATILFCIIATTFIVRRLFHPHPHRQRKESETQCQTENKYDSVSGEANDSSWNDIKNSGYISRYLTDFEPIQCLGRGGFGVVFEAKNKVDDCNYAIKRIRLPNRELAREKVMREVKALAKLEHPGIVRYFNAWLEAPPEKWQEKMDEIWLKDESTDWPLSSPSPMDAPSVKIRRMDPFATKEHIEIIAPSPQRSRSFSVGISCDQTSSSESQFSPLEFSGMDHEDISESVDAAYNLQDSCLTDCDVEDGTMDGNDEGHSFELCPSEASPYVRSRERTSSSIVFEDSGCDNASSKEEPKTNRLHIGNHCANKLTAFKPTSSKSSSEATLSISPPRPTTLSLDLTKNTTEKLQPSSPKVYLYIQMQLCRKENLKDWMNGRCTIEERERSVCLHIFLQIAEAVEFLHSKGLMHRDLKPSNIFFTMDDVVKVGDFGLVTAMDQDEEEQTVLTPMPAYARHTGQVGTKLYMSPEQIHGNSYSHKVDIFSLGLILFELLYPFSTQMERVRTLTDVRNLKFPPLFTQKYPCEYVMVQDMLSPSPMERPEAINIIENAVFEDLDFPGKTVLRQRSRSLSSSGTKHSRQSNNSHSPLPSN
# The list shows a part of the results, in another mix than the full data. Calls of active or inactive are those of the source.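 The calls were made as follows: active = inhibition above the mean inhibition of all tested compounds plus 3 SD, set separately per screening campaign (cut at about 2.9% in these data); inactive = the rest.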
# Target: Eukaryotic translation initiation factor 2-alpha kinase 3 (Homo sapiens) (UniProt Q9NZJ5)
# Assay: SEAP translation reporter rise after PERK-DD activation – CHO PERK-DD cells, SEAP luminescence, HTS, PERK inhibitor project, primary screen (AID 1416);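 also: PERK kinase domain activated by AP20187 dimerizer at 100 nM; 0% = DMSO with dimerizer and 100% = rapamycin at 8.4 µM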
# Conditions: CHO PERK-DD fusion, at 5.6 µM, stronger effect = higher value
row,SMILES,inhibition
1,Cc1cccc(OCC(=O)OC2CN3CCC2CC3)c1 (configuration not stated),inactive: -0.01%
2,O=[As](O)(c1cccc(O)c1)c1cccc(O)c1,inactive: -0.14%
3,O=C(OC1CN2CCC1CC2)c1ccc(Cl)cc1 (configuration not stated),inactive: 1.82%
4,O=[As](O)(O)c1cccnc1,inactive: -0.12%
5,COc1cc(C(=O)NCC2(N3CCOCC3)CCCCC2)cc(Cl)c1OC(C)C,inactive: 0.3%
6,CC(C)/C=N\N=C(\N)N[N+](=O)[O-],inactive: 0.77%
7,CN(C(=O)Cc1ccc(Cl)c(Cl)c1)[C@@H]1CCCC[C@H]1N1CCCC1,inactive: 0.42%
8,CC1(CBr)Cn2c(nc3ccccc3c2=O)S1 (configuration not stated),inactive: 0.46%
9,O=[As](O)(c1ccccc1Br)c1ccccc1Br,inactive: -0.68%
10,CC(C)(C)C(=O)NC(Sc1ncccn1)C(Cl)(Cl)Cl (configuration not stated),inactive: 0.12%
11,Clc1n[nH]nc1-c1nn[nH][15n]1,inactive: -1.41%
12,O=P1(Nc2ccccn2)COc2ccccc2OC1,inactive: 0.6%
13,CCOP(=O)(Nc1ccc(C)cn1)OCC,inactive: 1.09%
14,Nc1cccc([As](=O)(O)c2ccccc2)c1,inactive: 0.33%
15,Cc1ccc(OCC(=O)OC2CN3CCC2CC3)cc1 (configuration not stated),inactive: 1.27%
16,O=[As](O)(c1cccs1)c1cccs1,inactive: 1.15%
17,O=P1(Nc2ccc(Br)cn2)COc2ccccc2OC1,inactive: 0.97%
18,O=P1(Nc2ncccn2)COc2ccccc2OC1,inactive: 0.76%
19,CN(C)C1(CNC(=O)c2ccc(S(C)(=O)=O)cc2)CCCCC1,inactive: 1.6%
20,O=C(/C=C/c1ccccc1)OC1CN2CCC1CC2 (configuration not stated),inactive: 0.06%
21,CC1CCC(C(C)C)C(OP(=O)(Nc2ccccn2)c2ccccc2)C1 (configuration not stated),inactive: -0.23%
22,Cc1nn(-c2ccccc2)c2c1P(=O)(N1CCOCC1)N(C)C(c1ccccc1)=N2 (configuration not stated),inactive: -0.49%
